Test results from ChEMBL document CHEMBL6134903, “Challenging triple negative breast cancer through HDAC6 selective inhibition: Novel cap-group identification, structure-activity relationships, computational and biological studies” (Eur J Med Chem, 2025).

Target: T1, Protein deacetylase HDAC6 (Homo sapiens) (UniProt Q9UBN7)
T1 sequence (whole entry): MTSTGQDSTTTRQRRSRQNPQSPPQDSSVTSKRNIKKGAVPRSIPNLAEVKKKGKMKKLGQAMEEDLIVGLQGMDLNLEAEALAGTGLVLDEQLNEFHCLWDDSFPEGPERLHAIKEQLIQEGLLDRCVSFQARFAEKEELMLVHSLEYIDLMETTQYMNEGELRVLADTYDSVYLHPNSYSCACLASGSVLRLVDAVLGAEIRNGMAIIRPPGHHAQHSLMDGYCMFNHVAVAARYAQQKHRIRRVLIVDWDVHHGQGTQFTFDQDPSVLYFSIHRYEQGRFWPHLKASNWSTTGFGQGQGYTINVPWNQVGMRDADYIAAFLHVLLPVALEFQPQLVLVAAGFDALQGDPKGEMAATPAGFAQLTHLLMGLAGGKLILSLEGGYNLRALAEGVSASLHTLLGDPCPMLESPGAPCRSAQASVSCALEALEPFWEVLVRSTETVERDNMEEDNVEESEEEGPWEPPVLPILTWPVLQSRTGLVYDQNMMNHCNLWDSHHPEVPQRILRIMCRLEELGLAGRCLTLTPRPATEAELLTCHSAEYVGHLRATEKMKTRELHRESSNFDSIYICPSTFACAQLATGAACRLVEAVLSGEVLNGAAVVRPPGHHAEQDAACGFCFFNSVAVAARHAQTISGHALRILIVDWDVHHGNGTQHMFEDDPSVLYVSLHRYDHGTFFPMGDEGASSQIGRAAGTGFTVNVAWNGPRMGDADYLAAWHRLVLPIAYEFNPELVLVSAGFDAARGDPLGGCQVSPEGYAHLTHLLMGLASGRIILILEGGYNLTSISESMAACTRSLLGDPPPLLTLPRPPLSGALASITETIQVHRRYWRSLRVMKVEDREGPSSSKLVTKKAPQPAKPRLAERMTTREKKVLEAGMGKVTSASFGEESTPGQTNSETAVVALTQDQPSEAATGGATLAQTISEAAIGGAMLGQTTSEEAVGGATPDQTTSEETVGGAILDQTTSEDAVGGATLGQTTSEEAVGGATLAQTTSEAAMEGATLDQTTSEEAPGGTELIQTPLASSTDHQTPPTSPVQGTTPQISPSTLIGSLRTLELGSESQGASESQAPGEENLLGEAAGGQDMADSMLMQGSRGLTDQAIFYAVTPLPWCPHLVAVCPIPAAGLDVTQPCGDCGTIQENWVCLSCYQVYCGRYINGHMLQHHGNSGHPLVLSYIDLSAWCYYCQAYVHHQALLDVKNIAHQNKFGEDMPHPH
Conditions: HeLa, dose 5-80 nM, time 16.0 hrs

In the case of `O=C(/C=C/c1ccc(CN(CCO)CCc2c[nH]c3ccccc23)cc1)NO` [DACINOSTAT], the inhibition is reported as “Dose-dependent-effect”.
